Test results: patent US5955357A, “In-vitro-derived human neutrophil precursor cells” (Nexell Therapeutics Inc., priority 1994, dated 1999)

System: CD15+CD11b- neutrophil precursors
Assay: single cell proliferation assay of sorted neutrophil precursors in hematopoietic growth factors
Format: cell-based, human
Details: Table V, individual growth factors, after 10 days in culture
Experimental: Apheresis samples were collected after peripheral blood counts reached 1000/ul from patients mobilized with G-CSF (10 ug/kg/day) following cyclophosphamide/VP16 chemotherapy. Apheresis was performed using the CS-3000® blood cell separator (Fenwal Division, Baxter Healthcare, Deerfield, Ill.). Bone marrow was collected from normal volunteers.
The assays were performed by sorting single cells based upon expression of CD15 and CD11b by flow cytometry into multiwell plates containing 10 ul of culture media with various growth factor combinations. […] The same studies were performed on fresh bone marrow for comparison. Plates containing the sorted cells were incubated at 37° C. and the number of cells in each well were counted on days 1, 3 and 10. For further characterization of antigenic expression, cells at varying timepoints of culture were stained with the following antigenic combinations: FITC-CD15/PE-CD11b, FITC-CD71/PE-CD45RA,and FITC-CD67/PE-CD34.
To assess the absolute requirement of growth factors on the proliferation of neutrophil precursors, single cells were plated in the presence or absence of all four growth factors described above. The single cell cultures were incubated for an additional 10 days and then each well was scored for the number of total cells. The wells were categorized according to the number of cells per well.
To determine which single growth factor or combination of growth factors would support proliferation of neutrophil precursors, various combinations of the above growth factors were tested in the single cell proliferation assay.

B1: IL-3: hematopoietic growth factor, interleukin-3 (protein, UniProt P08700 20-152, looked up)
Interleukin-3: APMTQTTPLKTSWVNCSNMIDEIITHLKQPPLPLLDFNNLNGEDQDILMENNLRRPNLEAFNRAVKSLQNASAIESILKNLLPCLPLATAAPTRHPIHIKDGDWNEFRRKLTFYLKTLENAQAQQTTLSLAIF
In the case of B1, the “Percent of Total Cells Evaluated, 0 Cells/Wells” value is reported as 20%, the “Percent of Total Cells Evaluated, 1-4 Cells/Well” value is reported as 38% and the “Percent of Total Cells Evaluated, 5-8 Cells/Well” value is reported as 29%. The “Percent of Total Cells Evaluated, 9-16 Cells/Well” value was 10%, the “Percent of Total Cells Evaluated, 17-32 Cells/Well” value was 2% and the “Percent of Total Cells Evaluated, >32 Cells/Well” value was 1%.
